Assay results reported in patent publication EP0807624B1, “RETINOIC ACID DERIVATIVES” (THE SALK INSTITUTE FOR BIOLOGICAL STUDIES, priority 1991, dated 1993).

Legend:
HL60R cells = assay: Differentiation of HL60R cells (NBT); type: cell-based; settings: concentrations up to 10 µM
From the text: Retinoids are known to differentiate human promyelocytic leukemia cells.

With `CC1=C(/C=C/C(C)=C\C=C\C(C)=C\C(=O)O)C(C)(C)CCC1` [9-cis-retinoic acid] as the compound, how does the “differentiation (NBT) of HL60R cells” value (HL60R cells) read?
Its value is “resistant to differentiation”.

With `CC1=C(/C=C/C(C)=C/C=C/C(C)=C/C(=O)O)C(C)(C)CCC1` as the compound, how does the Kd (CRABP) read?
The Kd was 20 nM.
